Source: US10301272B2

Amino acid sequences for entries named in this document (tags omitted). Residues count along the entry.
UniProt P51449, whole entry: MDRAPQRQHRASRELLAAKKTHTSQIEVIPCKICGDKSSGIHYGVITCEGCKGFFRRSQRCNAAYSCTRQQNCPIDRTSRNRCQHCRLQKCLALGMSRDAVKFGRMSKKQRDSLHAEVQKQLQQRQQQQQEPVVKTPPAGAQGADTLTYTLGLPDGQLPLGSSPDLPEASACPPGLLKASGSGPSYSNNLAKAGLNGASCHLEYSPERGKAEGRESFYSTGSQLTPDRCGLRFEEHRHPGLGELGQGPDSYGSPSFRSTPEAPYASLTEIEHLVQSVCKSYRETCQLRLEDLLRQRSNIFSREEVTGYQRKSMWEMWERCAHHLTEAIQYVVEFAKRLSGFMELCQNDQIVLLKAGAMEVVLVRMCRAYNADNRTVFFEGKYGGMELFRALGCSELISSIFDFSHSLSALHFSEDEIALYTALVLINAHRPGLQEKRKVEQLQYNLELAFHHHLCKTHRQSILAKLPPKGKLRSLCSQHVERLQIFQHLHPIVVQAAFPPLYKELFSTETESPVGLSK
UniProt P51449, 269-508 limits assumed: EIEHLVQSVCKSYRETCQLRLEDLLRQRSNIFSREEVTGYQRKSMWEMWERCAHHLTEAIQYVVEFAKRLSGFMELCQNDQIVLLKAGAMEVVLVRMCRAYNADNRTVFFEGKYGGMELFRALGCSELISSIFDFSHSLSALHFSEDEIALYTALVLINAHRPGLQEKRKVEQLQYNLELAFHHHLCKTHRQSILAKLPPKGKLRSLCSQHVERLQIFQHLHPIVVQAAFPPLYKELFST

Assays:
[1] = target: RORγ ligand binding domain (LBD) (Homo sapiens (Human), UniProt P51449); assay: TR-FRET Activity Assay (ligand sensing assay, LANCE); settings: interaction of RORγ-LBD with coactivator peptide
RORγ = RORγ (Homo sapiens, UniProt P51449)

Structure (SMILES)	pIC50 (FRET) [1]	pIC50 (FF) (RORγ)	pIC50 (REN) (RORγ)
CC(C)(C)c1cc(C(C)(C)C)nc(-c2sc(C(=O)N[C@H]3C[C@H](C(=O)O)C3)nc2CC2CCCCC2)n1	6.4/6.7/6.4	6.4/6.7/6.4	6.4/6.7/6.4
O=C(NC1CCS(=O)(=O)CC1)c1nc(CC2CCCCC2)c(-c2ccc(C3(O)COC3)c3ccccc23)s1	5.7/6.3/6.2	5.7/6.3/6.2	5.7/6.3/6.2
CC(C)(O)CNC(=O)c1nc(C(=O)N2CCC(C)(C)CC2)c(-c2ccc(S(=O)(=O)NC(C)(C)C)c3ccccc23)s1	5.9/7.6/7.5	5.9/7.6/7.5	5.9/7.6/7.5
CCc1nc(C(=O)N2CC3(CCOCC3)C2)sc1-c1ccc(S(=O)(=O)NC(C)(C)C)c2ccccc12	5.9/6.8/6.9	5.9/6.8/6.9	5.9/6.8/6.9
